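Interpolation was linear, between the two tested concentrations surrounding the appropriate level; five concentrations were tested over 48 hours in 96-well plates. Here, GI50 denotes the concentration required for 50% inhibition of growth. TGI marks complete inhibition of growth.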
Legend:
Test in all cases: NCI anticancer screen, dose series, 48 h
SK-MEL-5 melanoma = test system: SK-MEL-5 melanoma
HOP-62 NSCLC = test system: HOP-62 NSCLC
HOP-92 NSCLC = test system: HOP-92 NSCLC
SNB-19 CNS = test system: SNB-19 CNS
A498 renal = test system: A498 renal
LOX IMVI melanoma = test system: LOX IMVI melanoma
MALME-3M melanoma = test system: MALME-3M melanoma
DU-145 prostate = test system: DU-145 prostate
SF-539 CNS = test system: SF-539 CNS
NCI-H522 lung = test system: NCI-H522 lung
CAKI-1 renal = test system: CAKI-1 renal
SK-MEL-28 melanoma = test system: SK-MEL-28 melanoma
NCI-H226 lung = test system: NCI-H226 lung
OVCAR-8 ovarian = test system: OVCAR-8 ovarian
MCF7 breast = test system: MCF7 breast
U251 CNS = test system: U251 CNS
UACC-62 melanoma = test system: UACC-62 melanoma
MDA-MB-435 = test system: MDA-MB-435
SN12C renal = test system: SN12C renal
786-0 renal = test system: 786-0 renal
RPMI-8226 leukemia = test system: RPMI-8226 leukemia
HCT-15 colon = test system: HCT-15 colon
SF-268 CNS = test system: SF-268 CNS
SW-620 colon = test system: SW-620 colon
K-562 leukemia = test system: K-562 leukemia
NCI/ADR-RES ovarian = test system: NCI/ADR-RES ovarian
IGROV1 ovarian = test system: IGROV1 ovarian
NCI-H23 lung = test system: NCI-H23 lung
EKVX NSCLC = test system: EKVX NSCLC
SK-OV-3 ovarian = test system: SK-OV-3 ovarian
RXF 393 renal = test system: RXF 393 renal
SF-295 CNS = test system: SF-295 CNS
KM12 colon = test system: KM12 colon
SK-MEL-2 melanoma = test system: SK-MEL-2 melanoma
COLO 205 colon = test system: COLO 205 colon
HT29 colon = test system: HT29 colon
CCRF-CEM leukemia = test system: CCRF-CEM leukemia
SR leukemia = test system: SR leukemia
UACC-257 melanoma = test system: UACC-257 melanoma
HCC-2998 colon = test system: HCC-2998 colon
M14 melanoma = test system: M14 melanoma
OVCAR-5 ovarian = test system: OVCAR-5 ovarian
SNB-75 CNS = test system: SNB-75 CNS
ACHN renal = test system: ACHN renal
NCI-H322M lung = test system: NCI-H322M lung
TK-10 renal = test system: TK-10 renal
OVCAR-3 ovarian = test system: OVCAR-3 ovarian
MDA-MB-231 breast = test system: MDA-MB-231 breast
HS 578T breast = test system: HS 578T breast
NCI-H460 lung = test system: NCI-H460 lung
UO-31 renal = test system: UO-31 renal
A549 NSCLC = test system: A549 NSCLC
MOLT-4 leukemia = test system: MOLT-4 leukemia
OVCAR-4 ovarian = test system: OVCAR-4 ovarian
HCT-116 colon = test system: HCT-116 colon
T-47D breast = test system: T-47D breast
PC-3 prostate = test system: PC-3 prostate
BT-549 breast = test system: BT-549 breast
HL-60(TB) leukemia = test system: HL-60(TB) leukemia

## BrC1CSc2cccc3ccc[n+](c23)C1 (stereo not drawn)
SK-MEL-5 melanoma
  GI50: 7.41 µM
  TGI: 23 µM
HOP-62 NSCLC
  GI50: 13.1 µM
  TGI: > 100 µM
HOP-92 NSCLC
  GI50: 3.75 µM
  TGI: 16.4 µM
SNB-19 CNS
  GI50: 18.8 µM
  TGI: 84.1 µM
A498 renal
  GI50: 2.79 µM
  TGI: 7.94 µM
LOX IMVI melanoma
  GI50: 16.2 µM
  TGI: 38.9 µM
MALME-3M melanoma
  GI50: 11.6 µM
  TGI: 24.2 µM
DU-145 prostate
  GI50: 7.17 µM
  TGI: 56.2 µM
SF-539 CNS
  GI50: 24.5 µM
  TGI: 65.1 µM
NCI-H522 lung
  GI50: 2.3 µM
  TGI: 8.56 µM
CAKI-1 renal
  GI50: 8.8 µM
  TGI: 93.3 µM
SK-MEL-28 melanoma
  GI50: 37.6 µM
  TGI: > 100 µM
NCI-H226 lung
  GI50: 25 µM
  TGI: 55.7 µM
OVCAR-8 ovarian
  GI50: 14.1 µM
  TGI: 42.5 µM
MCF7 breast
  GI50: 14.2 µM
  TGI: 65.6 µM
U251 CNS
  GI50: 12.1 µM
  TGI: 67.5 µM
UACC-62 melanoma
  GI50: 16.3 µM
  TGI: 33.2 µM
MDA-MB-435
  GI50: 17.8 µM
  TGI: 42.4 µM
SN12C renal
  GI50: 12.9 µM
  TGI: 36.8 µM
786-0 renal
  GI50: 17.9 µM
  TGI: > 100 µM
RPMI-8226 leukemia
  GI50: 3.24 µM
  TGI: 19.3 µM
HCT-15 colon
  GI50: 29.5 µM
  TGI: > 100 µM
SF-268 CNS
  GI50: 2.87 µM
  TGI: 46.2 µM
SW-620 colon
  GI50: 17.4 µM
  TGI: > 100 µM
K-562 leukemia
  GI50: 12.8 µM
  TGI: 64.1 µM
NCI/ADR-RES ovarian
  GI50: 35.9 µM
  TGI: > 100 µM
IGROV1 ovarian
  GI50: 11.6 µM
  TGI: 32.1 µM
NCI-H23 lung
  GI50: 7.86 µM
  TGI: 25.1 µM
EKVX NSCLC
  GI50: 15.3 µM
  TGI: 49.8 µM
SK-OV-3 ovarian
  GI50: 21.5 µM
  TGI: > 100 µM
RXF 393 renal
  GI50: 12.6 µM
  TGI: 69.3 µM
SF-295 CNS
  GI50: 9.39 µM
  TGI: > 100 µM
KM12 colon
  GI50: 13.4 µM
  TGI: 52.7 µM
SK-MEL-2 melanoma
  GI50: 18.5 µM
  TGI: 42.7 µM
COLO 205 colon
  GI50: 10.6 µM
  TGI: 29.4 µM
HT29 colon
  GI50: 15.2 µM
  TGI: 65.3 µM
CCRF-CEM leukemia
  GI50: 6.31 µM
  TGI: 44.5 µM
SR leukemia
  GI50: 2.33 µM
  TGI: 9.68 µM
UACC-257 melanoma
  GI50: 21.8 µM
  TGI: 61.1 µM
HCC-2998 colon
  GI50: 12.6 µM
  TGI: 33.2 µM
M14 melanoma
  GI50: 37.3 µM
  TGI: > 100 µM
OVCAR-5 ovarian
  GI50: 3.55 µM
  TGI: 11.7 µM
SNB-75 CNS
  GI50: 37.8 µM
  TGI: > 100 µM
ACHN renal
  GI50: 2.72 µM
  TGI: 42.2 µM
NCI-H322M lung
  GI50: 15 µM
  TGI: 44 µM
TK-10 renal
  GI50: 26.1 µM
  TGI: 83.8 µM
OVCAR-3 ovarian
  GI50: 18.1 µM
  TGI: 61.8 µM
MDA-MB-231 breast
  GI50: 15 µM
  TGI: 80.7 µM
HS 578T breast
  GI50: 37.1 µM
  TGI: 75.1 µM
NCI-H460 lung
  GI50: 4.98 µM
  TGI: 50 µM
UO-31 renal
  GI50: 11.9 µM
  TGI: 30.1 µM
A549 NSCLC
  GI50: 7.1 µM
  TGI: 59.9 µM
MOLT-4 leukemia
  GI50: 1.42 µM
  TGI: 5.05 µM
OVCAR-4 ovarian
  GI50: 15.6 µM
  TGI: 43.7 µM
HCT-116 colon
  GI50: 12 µM
  TGI: 44 µM
T-47D breast
  GI50: 8.56 µM
  TGI: 58.7 µM
PC-3 prostate
  GI50: 32.2 µM
  TGI: > 100 µM
BT-549 breast
  GI50: 5.58 µM
  TGI: 22.9 µM
HL-60(TB) leukemia
  GI50: 2.65 µM
  TGI: 8.92 µM
